Assay results published in US20220144812A1, “QUINOLINE DERIVATIVES AND THEIR USE FOR THE TREATMENT OF CANCER” (Epizyme, Inc., priority 2019, published 2022).

Sequences of proteins named here, by UniProt entry; tags and fusion partners are left off. Residues count along the entry.
UniProt Q92793, 1084-1701 limits assumed: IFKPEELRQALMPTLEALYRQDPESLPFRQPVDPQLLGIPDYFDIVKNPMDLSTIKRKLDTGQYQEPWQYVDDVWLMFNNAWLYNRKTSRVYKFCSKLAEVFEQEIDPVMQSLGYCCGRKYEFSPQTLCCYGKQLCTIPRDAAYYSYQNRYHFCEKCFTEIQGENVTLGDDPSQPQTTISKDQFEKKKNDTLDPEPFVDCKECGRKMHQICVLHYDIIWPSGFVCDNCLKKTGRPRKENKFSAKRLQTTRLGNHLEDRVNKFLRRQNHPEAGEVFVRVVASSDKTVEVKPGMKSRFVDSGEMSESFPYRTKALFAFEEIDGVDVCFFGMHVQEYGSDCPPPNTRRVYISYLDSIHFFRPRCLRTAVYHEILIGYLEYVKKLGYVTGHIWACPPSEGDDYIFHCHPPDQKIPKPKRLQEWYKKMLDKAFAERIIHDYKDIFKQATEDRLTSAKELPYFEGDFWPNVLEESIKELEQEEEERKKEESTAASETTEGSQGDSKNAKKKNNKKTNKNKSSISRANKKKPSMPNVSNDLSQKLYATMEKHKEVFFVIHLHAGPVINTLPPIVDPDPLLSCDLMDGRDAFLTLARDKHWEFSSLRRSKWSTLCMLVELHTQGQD
UniProt Q09472, 1048-1664 limits assumed: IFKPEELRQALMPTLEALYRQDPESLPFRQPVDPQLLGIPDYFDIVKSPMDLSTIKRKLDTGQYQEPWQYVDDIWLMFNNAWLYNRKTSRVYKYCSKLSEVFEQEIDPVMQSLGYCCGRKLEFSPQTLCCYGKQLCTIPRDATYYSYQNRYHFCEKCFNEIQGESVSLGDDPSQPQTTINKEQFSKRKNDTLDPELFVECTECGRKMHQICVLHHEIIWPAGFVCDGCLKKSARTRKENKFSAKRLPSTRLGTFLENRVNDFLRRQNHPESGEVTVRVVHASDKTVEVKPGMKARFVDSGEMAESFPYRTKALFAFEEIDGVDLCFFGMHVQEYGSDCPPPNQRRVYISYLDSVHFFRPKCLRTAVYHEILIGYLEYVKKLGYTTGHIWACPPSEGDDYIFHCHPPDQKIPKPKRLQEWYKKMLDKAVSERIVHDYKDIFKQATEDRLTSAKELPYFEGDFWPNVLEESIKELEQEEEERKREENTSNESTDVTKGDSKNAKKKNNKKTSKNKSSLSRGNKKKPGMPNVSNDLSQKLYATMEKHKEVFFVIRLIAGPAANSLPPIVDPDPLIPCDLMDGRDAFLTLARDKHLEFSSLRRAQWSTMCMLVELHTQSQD

How the values were obtained:
[1] = test system: H3K18Ac in HB-CLS-2 cells; test: H3K18AC in-cell western (ICW) assay
Description: The following example describes methods and materials relating to an H3K18AC in-cell western assay. IC50 values (micromolar (μM)) are summarized in Table 1, Table 2, and Table 3 under the column labeled: “CREBBP ICW IC50 (micromolar).”
MATERIALS: HB-CLS-2 cell line, DMEM: Ham's F12 medium (1:1 mixture), penicillin-streptomycin, heat inactivated fetal bovine serum, D-PBS, Odyssey blocking buffer, 800CW goat anti-rabbit IgG (H+L) antibody, Licor Odyssey CLx Infrared Scanner, H3K18Ac rabbit monoclonal antibody. DRAQS fluorescent probe solution (5 mM), and 100% methanol were commercially available. HB-CLS-2 adherent cells were maintained in complete growth medium (DMEM: Ham's F12 supplemented with 10% v/v heat inactivated fetal bovine serum) and cultured at 37° C. under 5% CO2.
METHOD: Cell Treatment, ICW for detection of H3K18Ac and DNA content. HB-CLS-2 cells were seeded in assay medium (DMEM: Ham's F12 supplemented with 10% v/v heat inactivated fetal bovine serum and 1% Penicillin/Streptomycin) at a concentration of 80,000 cells per mL in a Poly-D-Lysine coated 384-well culture plates at 50 μL per well. Plates were incubated at room temperature for 30 minutes and then incubated at 37° C., 5% CO2 for additional 16-24 hours. Compounds and DMSO normalization were then added directly to the plates using a D300 Digital Dispenser and returned to the incubator at 37° C., 5% CO2 for 2 hrs. After the incubation, the contents of the plates were discarded into the appropriate waste stream and blotted on laboratory tissue to remove residual liquid. 90 μL per well of 100% ice cold methanol was added to the plates and incubated at room temperature for 15 minutes. Then methanol was then discarded into the appropriate waste stream and the plates again blotted on laboratory tissue to remove residual liquid. Plates were transferred to a Biotek 405 plate washer and washed 3 times with 100 μL per well of wash buffer (1X PBS containing 0.1% Triton X-100 (v/v)). Next, 50 μL per well of Odyssey blocking buffer with 0.1% Tween 20 (v/v) was added to each plate and incubated for 1 hour at room temperature. Blocking buffer was removed and 20 μL of primary antibody were added (α-H3K18Ac diluted 1:800 in Odyssey buffer with 0.1% Tween 20 (v/v)) and plates were incubated overnight (16 hours) at 4° C. Plates were washed 5 times with 100 μL per well of wash buffer. Next 20 μL per well of secondary antibody was added (1:400 800CW goat anti-rabbit IgG (H+L) antibody, 1:2000 DRAQ5 in Odyssey buffer with 0.1% Tween 20 (v/v)) and incubated for 1 hour at room temperature. The plates were washed 3 times with 100 μL per well wash buffer then 3 times with 100 μL per well of water. Plates were allowed to dry at room temperature then imaged on the Licor Odyssey CLx machine which measured integrated intensity at 700 nm and 800 nm wavelengths. Both 700 and 800 channels were scanned.

[2] = test system: 647V cells; test: High throughput proliferation (HTP) assay
Description: The following example describes methods and materials relating to a high throughput proliferation (HTP) assay. IC50 values (micromolar) are summarized in Table 1, Table 2, and Table 3 under the column labeled: “CREBBP HTP IC50 (micromolar).”
MATERIALS: 647V cell line, Dulbecco's MEM, penicillin-streptomycin, heat inactivated fetal bovine serum, D-PBS, and CellTiter-Glo were commercially available.
647V adherent cells were maintained in complete growth medium (Dulbecco's MEM supplemented with 15% v/v heat inactivated fetal bovine serum) and cultured at 37° C. under 5% CO2.
METHOD: Measurement of the effect of compound in High Throughput Proliferation (HTP) assays was performed as follows: Exponentially growing 647V cells were plated, in triplicate, in 384-well plates at the appropriate cell density in a final volume of 50 μl. Cells were incubated in the presence of increasing concentrations of compound. Viable cell number was determined at day 7 by addition of 35 μl CellTiter-Glo to each well of the plate, incubated in the dark for 30 minutes, and read on a PerkinElmer EnVision instrument to enumerate the number of cells.

[3] = target: CREBBP (1084-1701) (Homo sapiens, UniProt Q92793); test: Biochemical assay for CREBBP (1084-1701), SAMDI
Description: The following example describes materials and methods relating to a biochemical assay for CREBBP (1084-1701). IC50 values (micromolar (μM)) are summarized in Table 1, Table 2, and Table 3 under the column labeled: “CREBBP Biochemistry IC50 (micromolar).”
MATERIALS: Reagents 1M Tris pH 8.0, Tween 20 10%, DTT, bovine serum gelatin (BSG) 2%, Peptide #233 (biotin-H3 11-25, K14R, K23R), Acetyl-CoA, CREBBP (1084-1701), formic acid (100%), and sodium bicarbonate were commercially available.
METHODS: The effect of compounds was measured in the following biochemical assay using CREBBP (1084-1701). Enzyme mix 30 μL per well was added using a Multi-drop to wells of prepared Compound Stock plate. The enzyme was incubated in the Compound Stock plate for 30 minutes at room temperature. Substrate mix, 20 μL per well, was added to Compound Stock plate using a Multi-drop. The plate was covered and incubate 30 minutes at room temperature. The reaction was stopped with addition of 5 μL per well of 5% formic acid using a Multi-drop. The plate was Incubated for 30 minutes at room temperature. The reaction mixture was neutralized with addition of 5 μL per well of 10% sodium bicarbonate using a Multi-drop. The plate was Incubated for 35 minutes at room temperature. The reaction mixture was Transferred 2.5 μL per well to a SAMDI biochip. The plate was Incubated for 60 minutes at room temperature. The samples were washed, dried, and matrix applied to SAMDI biochip. The SAMDI biochip was then read on the mass spectrometer.

[4] = target: EP300 (P300(1048-1664)) (Homo sapiens, UniProt Q09472); test: Biochemical assay for EP300, SAMDI; details: EP300, SAMDI
Description: The following example describes materials and methods relating to a biochemical assay for EP300. IC50 values (micromolar (μM)) are summarized in Table 1, Table 2, and Table 3 under the column labeled: “EP300 Biochemistry IC50 (micromolar).”

[5] = read-out: CREBBP ICW IC50 (micromolar)
[6] = read-out: CREBBP HTP IC50 (micromolar)
[7] = read-out: CREBBP Biochemistry IC50 (micromolar), SAMDI
[8] = read-out: EP300 Biochemistry IC50 (micromolar)
[9] = read-out: CREBBP ICW IC50, HB-CLS-2 cells
[10] = read-out: CREBBP Biochemistry IC50, SAMDI

Row | SMILES | pIC50 [1, 5] | pIC50 [2, 6] | pIC50 [3, 7] | pIC50 [4, 8] | pIC50 [1, 9] | pIC50 [3, 10] | pIC50 ([2]; read-out: CREBBP HTP IC50, 647V cells) | pIC50 ([4]; read-out: EP300 Biochemistry IC50)
1 | CCn1ncc(CN(C)C(=O)c2cc(-c3ccc(NC(C)CNC)c(C)n3)nc3ccc(Cl)cc23)c1C (stereo not drawn) | 6.96 | 7.17 | 7.47 | 7.97 |  |  |  | 
2 | CCn1ncc(CN(C)C(=O)c2nc(-c3cc4c(N(C)C)n[nH]c4cc3C)nc3ccc(Cl)cc23)c1C | 5.42 | 5.63 | 5.29 | 5.64 |  |  |  | 
3 | CCn1ncc(CN(C)C(=O)c2nc(-c3cc(NCCNC)c4nc[nH]c4c3)nc3ccc(Cl)cc23)c1C | 5.10 | 5.19 | 6.77 | 6.07 |  |  |  | 
4 | CCc1ncc(CN(C)C(=O)c2cc(-c3ccc(NC4CNC4)c(C)n3)nc3ccc(Cl)cc23)n1C | 6.44 | 7.07 | 7.76 | 8.02 |  |  |  | 
5 | CCn1ncc(CN(C)C(=O)c2nc(-c3cc(C)cc(N[C@@H]4CCNC4)c3)nc3ccc(Cl)cc23)c1C | 7.06 | 7.42 | 7.92 | 8.40 |  |  |  | 
6 | CCn1ncc(CN(C)C(=O)c2nc(-c3ccc(OCC(O)CNC)c(OC)c3)nc3ccc(Cl)cc23)c1C (stereo not drawn) | 5.47 | 6.20 | 6.26 | 5.85 |  |  |  | 
7 | CCn1ncc(CN(C)C(=O)c2nc(-c3ccc(OCCNC(=O)OC(C)(C)C)c(OC)c3)nc3ccc(Cl)cc23)c1C | 5.29 | 5.51 | 5.05 | 4.89 |  |  |  | 
8 | CCc1cc(CN(C)C(=O)c2cc(-c3ccc(NCCNC)c(C)n3)nc3ccc(Cl)cc23)on1 | 6.61 | 6.68 | 7.33 | 6.52 |  |  |  | 
9 | CCn1ncc(CN(C)C(=O)c2nc(-c3cnc(Cl)s3)nc3ccc(Cl)cc23)c1C |  |  |  |  | 4.85 | 5.12 |  | 
10 | CCn1ncc(CN(C)C(=O)c2nc(-c3cc(Cl)cc(CN(C)C(=O)OC(C)(C)C)c3)nc3ccc(Cl)cc23)c1C |  |  |  |  | 5.70 | 5.16 | 4.72 | 4.59
11 | CCn1ncc(CN(C)C(=O)c2nc(-c3cc4[nH]ccc4cc3C)nc3ccc(Cl)cc23)c1C | 6.97 | 7.06 | 8.31 | 7.91 |  |  |  | 

pIC50: −log10 of the molar value. Like-named read-outs stand apart in the source and are kept apart here.
